This passage reports IC50 results from ChEMBL document CHEMBL5653603 (J Am Chem Soc, 2010).

Chains of the proteins cited; added tags and fusions are not shown. Lines headed by an entry give the natural chain unless they say otherwise; changes in a name come on top.
UniProt P56524: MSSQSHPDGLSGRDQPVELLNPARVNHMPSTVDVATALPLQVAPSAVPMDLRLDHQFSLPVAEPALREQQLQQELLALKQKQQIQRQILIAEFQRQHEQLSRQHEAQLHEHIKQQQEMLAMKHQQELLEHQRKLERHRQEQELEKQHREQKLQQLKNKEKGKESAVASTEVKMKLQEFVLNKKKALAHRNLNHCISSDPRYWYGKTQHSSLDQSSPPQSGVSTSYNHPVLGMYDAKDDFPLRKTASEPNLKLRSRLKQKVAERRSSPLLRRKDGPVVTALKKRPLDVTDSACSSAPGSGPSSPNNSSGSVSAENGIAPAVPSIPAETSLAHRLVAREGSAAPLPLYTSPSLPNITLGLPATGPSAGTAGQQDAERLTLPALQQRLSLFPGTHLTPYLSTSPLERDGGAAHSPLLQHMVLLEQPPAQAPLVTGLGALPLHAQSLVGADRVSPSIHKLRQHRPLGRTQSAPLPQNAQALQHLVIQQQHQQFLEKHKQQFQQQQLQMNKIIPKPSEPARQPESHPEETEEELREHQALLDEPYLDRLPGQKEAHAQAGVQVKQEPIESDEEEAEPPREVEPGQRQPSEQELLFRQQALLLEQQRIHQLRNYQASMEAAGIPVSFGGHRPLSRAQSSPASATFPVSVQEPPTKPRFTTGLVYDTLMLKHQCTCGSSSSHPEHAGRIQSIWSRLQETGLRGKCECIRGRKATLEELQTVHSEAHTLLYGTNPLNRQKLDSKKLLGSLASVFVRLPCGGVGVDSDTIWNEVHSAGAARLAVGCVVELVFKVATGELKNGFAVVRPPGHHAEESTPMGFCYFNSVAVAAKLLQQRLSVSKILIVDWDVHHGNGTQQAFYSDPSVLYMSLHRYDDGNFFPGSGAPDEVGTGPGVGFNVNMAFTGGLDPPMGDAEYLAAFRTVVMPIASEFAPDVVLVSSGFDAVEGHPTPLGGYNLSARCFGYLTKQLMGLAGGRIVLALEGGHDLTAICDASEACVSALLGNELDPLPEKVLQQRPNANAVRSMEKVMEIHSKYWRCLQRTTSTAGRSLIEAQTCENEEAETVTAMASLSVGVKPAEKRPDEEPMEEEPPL

This assay addresses Histone deacetylase 4 (Homo sapiens, UniProt P56524). Nature of the assay: Inhibition of recombinant human HDAC4 using Acetyl-Lys(trifluoroacetyl)-AMC as substrate by fluorescence assay. Type of assay: toxicity.

Structures are written as SMILES.

Regarding `CN1CCc2c(c3ccccc3n2Cc2ccc(C(=O)NO)cc2)C1.O=C(O)C(F)(F)F`, the IC50 (in general, the midpoint of a concentration-inhibition curve) is above 30 µM.
